Screens deposited in PubChem BioAssay by Broad Institute.
FN deposit inh: fibronectin deposition inhibition | AH1F fibroblasts, Alexa488-fibronectin deposition fluorescence, overnight | inhibition, % at 12.6 µM | 350,000 tested, 0.086% active;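 active means mean inhibition across replicates of 30% or more, regardless of how many single replicates reach that level; inconclusive means mean under 30% yet at least half of replicates reach 30%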;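 further: positive control wells lacked labelled fibronectin entirely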
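Assay system: AH1F fibroblasts assembling fluorescent fibronectin matrix; Amount: 10000 AH1F cells per well; Buffer or medium: DMEM, 2% serum; Probe or stimulus: Alexa488-fibronectin, 24 nM final in well; Doses: single compound dose, delivered by pin transfer; Incubation: 1 h adhesion, overnight exposure; Measured by: fluorescence 485/525 nm; Read-out: fibronectin deposition inhibition.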
miR-122 sensor: inhibitors of miR-122 in Huh7 cells; AID 602342; 340,000 tested, 0.3% active; activation (reporter increase), % at 12.5 µM; Huh7 miR-122 Renilla luciferase sensor, 48 h; neutral wells = 0, positive control = 100;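 active means mean replicate activation score at least 90 and every replicate individually at or above 90; inconclusive means only one of the two criteria met; inactive means neither criterion met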;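 further: higher luciferase means less miR-122 activity so hits act as miR-122 inhibitors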
Cneo AK release: causes C. neoformans cell lysis | adenylate kinase release luminescence, 4 h; normalised: neutral wells 0, clomiphene wells 100 | lysis activity, % at 15 µM | 360,000 tested, 0.2% active;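 active means mean lysis activity across replicates of at least 80%, whatever share of replicates individually reach that level; inactive means mean lysis activity below 80%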
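Material – Cryptococcus neoformans yeast cells · Quantity – 5 × 10^6 yeast cells/mL · Buffer or medium – YPD medium · Compound – single dose · Timing – 4 h static compound exposure, 37 °C, read 1 h post-reagent · Signal – adenylate kinase release luminescence · Read-out basis – lysis from increased AK signal · Benchmarks – Clomiphene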
Yeast UUG start: yeast start codon fidelity modulation; actives 0.13% (n = 350,000); activity score, % at 18.7 µM; S. cerevisiae UUG-firefly luciferase reporter, luminescence/redox ratio;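 active = replicate mean at a twofold rise or more, about +100% in these data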;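 note: firefly luciferase made from a UUG start codon reports start codon fidelity; reporter light over untreated wells divided by growth signal over untreated wells; some hits fall short of that in this replicate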
PGC1a acetyl inh: modulators of PGC1a acetylation; inhibition, % at 15.6 µM; 350,000 tested, 0.17% active; AID 651687; U2OS PGC1a acetylation, AlphaScreen anti-acetyl-lysine; with virally co-expressed GCN5 acetyltransferase;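 active means every replicate shows inhibition of at least 40%; inconclusive means mean inhibition at least 40% but some replicate below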;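 further: 0% = neutral control wells and 100% = positive control wells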
Env fusion inh: HIV envelope-mediated fusion inhibition. HeLa-JRFL Env/CEM21 cell fusion, luciferase. inhibition, % at 12.3 µM. AID 651610. 360,000 tested, 1.1% active;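 active means mean replicate inhibition score of at least 50 and every replicate individually at or above 50; inconclusive means only one of the two criteria met; inactive means mean below 50 and not all replicates reaching 50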;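 further: 0% = plate neutral controls and 100% = maraviroc near 300 nM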
Starred values were filed as active, the others as inactive; ? = inconclusive; . = not tested or not shown; [ ] = another dose, or the depositor's remark. An excerpt weighted towards active compounds, which were near 1.5% of everything screened.

Values run as follows: PGC1a acetyl inh | FN deposit inh | miR-122 sensor | Yeast UUG start | Env fusion inh | Cneo AK release
1) CCOC(=O)c1c(C)c(C(=O)N2CCN(c3cccc(Cl)c3)CC2)c(C)n1C
→ -4.3 | -6.0 | -2.2 | -12.1 | 57.3* | -1.4
2) O=C(CN1c2ccccc2Sc2ccccc21)NNC(=O)Nc1cccc(Cl)c1
→ -4.9 | -1.6 | 112.7* | -10.3 | 22.4 | -2.2
3) O=C(Cc1ccccc1)NNC(=O)Nc1cccc(Cl)c1
→ 11.5 | -35.8 | 7.8 | -12.9 | ? | -0.6
4) C[C@@H]1CN([C@@H](C)CO)C(=O)c2cc(NS(=O)(=O)c3cccs3)ccc2O[C@@H](C)CCCCO[C@H]1CN(C)Cc1ccc(C(F)(F)F)cc1
→ -5.3 | . | -8.9[16.7 µM] | 6.1 | 58.4*[16.7 µM] | -0.2
5) C[C@@H]1CN([C@H](C)CO)C(=O)c2cc(NS(=O)(=O)c3cccs3)ccc2O[C@@H](C)CCCCO[C@@H]1CN(C)Cc1ccc(C(F)(F)F)cc1
→ -7.6 | . | 9.6[16.7 µM] | 8.0 | 15.3[16.7 µM] | -0.1
6) C[C@H](CO)N1C[C@H](C)[C@H](CN(C)Cc2ccccc2)OCCCC[C@H](C)Oc2ccc(NS(=O)(=O)c3cccs3)cc2C1=O
→ 3.0 | -22.5 | -4.1[16.7 µM] | 31.2 | -57.8[16.7 µM] | 90.9*
7) C[C@H](CO)N1C[C@H](C)[C@@H](CN(C)Cc2ccccc2)OCCCC[C@H](C)Oc2ccc(NS(=O)(=O)c3cccs3)cc2C1=O
→ -0.7 | -8.5 | -1.4[16.7 µM] | 5.0 | -39.1[16.7 µM] | 2.6
8) CC(=O)N1c2ccc(F)c(F)c2C[C@H]1C
→ . | -22.0 | -4.9 | -12.7 | 10.1 | -1.7
9) CN(C)S(=O)(=O)c1cccc(COC(=O)C2=COCCO2)c1
→ -0.3 | -8.2 | -2.1 | -2.2 | -38.5 | -1.5
10) Cc1cc(Cl)c(S(=O)(=O)Nc2ccc3c(c2)OCCO3)cc1OCC(=O)NC1CCCCC1
→ . | 3.3 | 156.6* | -16.3 | -23.0 | 2.3

Ordered by value in Env fusion inh (largest number first): 4 from the list above
cpd | Molecule | PGC1a acetyl inh | miR-122 sensor | Yeast UUG start | Env fusion inh
1 | CCOC(=O)c1c(C)c(C(=O)N2CCN(c3cccc(Cl)c3)CC2)c(C)n1C | -4.3 | -2.2 | -12.1 | 57.3*
2 | O=C(CN1c2ccccc2Sc2ccccc21)NNC(=O)Nc1cccc(Cl)c1 | -4.9 | 112.7* | -10.3 | 22.4
10 | Cc1cc(Cl)c(S(=O)(=O)Nc2ccc3c(c2)OCCO3)cc1OCC(=O)NC1CCCCC1 | . | 156.6* | -16.3 | -23.0
9 | CN(C)S(=O)(=O)c1cccc(COC(=O)C2=COCCO2)c1 | -0.3 | -2.1 | -2.2 | -38.5

Remaining list, next part:
Values run as follows: PGC1a acetyl inh | FN deposit inh | miR-122 sensor | Yeast UUG start | Env fusion inh | Cneo AK release
11) O=C(COc1ccc(S(=O)(=O)NC2CCCCC2)cc1)Nc1ccc2c(c1)OCCO2
→ . | -0.5 | 101.2* | 2.6 | 7.2 | -2.4
12) Cc1cc(Cl)c(S(=O)(=O)Nc2ccon2)cc1OCC(=O)NC1CCCCC1
→ . | -5.8 | -11.1 | -4.7 | -82.2 | -0.9
13) Brc1ccc(-c2nnc3n2CCCCC3)cc1
→ 9.1 | . | 8.7 | -11.6 | . | -2.0
14) Cc1ccc(C(=O)N2CCCC2)cc1S(=O)(=O)Nc1ccccc1
→ -19.6 | . | 24.5 | -3.7 | . | 3.7
15) Cc1ccc(C(=O)NCCSC2CCCCC2)cc1S(=O)(=O)Nc1ccccc1
→ -41.9 | . | 99.5* | . | . | .
16) Cc1ccccc1NS(=O)(=O)c1cc(C(=O)Nc2cccc(N(C)S(C)(=O)=O)c2)ccc1C
→ 6.2 | -6.8 | . | -6.7 | 33.5 | 1.1
17) Cc1ccccc1NS(=O)(=O)c1cc(C(=O)N2CCc3ccccc3C2)ccc1C
→ 2.5 | -11.7 | 177.0* | . | 1.1 | .
18) Cc1ccc(NS(=O)(=O)c2cc(C(=O)Nc3cccc([N+](=O)[O-])c3)ccc2C)cc1
→ -9.1 | -2.8 | 131.4* | -10.9 | . | 2.0
19) Cc1ccc(C(=O)N2CCc3ccccc3C2)cc1S(=O)(=O)N1CCOCC1
→ . | -1.2 | 2.5 | 2.2 | . | 2.1
20) CN(c1cccc(NC(=O)c2ccc(Cl)c(S(=O)(=O)Nc3ccccc3)c2)c1)S(C)(=O)=O
→ -0.9 | . | 197.0* | -16.1 | -31.9 | 0.0
21) CCC(C)[C@H](N)C(=O)N[C@H]1CCC2C3CC=C4C[C@@H](O)CC[C@]4(C)C3CC[C@@]21C (stereo not given in full)
→ 3.9 | 4.2 | . | -5.9 | 10.6 | 3.2
22) COc1ccc2c3c(n(C)c2c1)[C@H](CO)N(C(C)=O)CC31CCN(Cc2nccs2)CC1
→ -7.0 | . | . | . | . | .
23) Cc1ccc(C(=O)Nc2ccccc2C(=O)O)cc1S(=O)(=O)Nc1ccccc1
→ 2.0 | 12.5 | 91.7* | -5.8 | 3.6 | 1.7
24) CCC(=O)N1[C@@H]2Cn3c(ccc(C4=CCCCC4)c3=O)[C@H]1[C@@H](C(=O)N[C@@H](C)c1ccccc1)[C@@H]2CO
→ . | . | -0.3[16.7 µM] | 26.5 | . | 4.4
25) COc1ccc([Si](C)(C)[C@@H]2[C@@H](CCO)O[C@]3(C(=O)N4c5c(cc(OC)cc53)C(C)=CC4(C)C)[C@H]2C)cc1
→ -8.9 | . | . | -1.8 | 89.6*[16.7 µM] | -8.6
26) COc1ccc([Si](C)(C)[C@H]2[C@H](CCO)O[C@@]3(C(=O)N4c5c(cc(OC)cc53)C(C)=CC4(C)C)[C@@H]2C)cc1
→ -11.1 | . | . | -3.7 | 34.1[16.7 µM] | -14.2
27) COc1ccc([Si](C)(C)[C@@H]2[C@@H](CCO)O[C@]3(C(=O)N(Cc4ccccc4)c4ccc(N5C(=O)c6cccc7cccc5c67)cc43)[C@H]2C)cc1
→ -17.5 | . | . | -0.3 | 64.1*[16.7 µM] | 50.3
28) C=CCN1C(=O)[C@]2(O[C@H](CCn3cc([C@H](O)c4ccccc4)nn3)[C@@H]([Si](C)(C)c3ccc(OC)cc3)[C@@H]2C)c2cc(N3CCOC3=O)ccc21
→ . | . | . | -17.2 | -3.2[16.7 µM] | 0.2
29) C=CCN1C(=O)[C@]2(O[C@H](CCn3cc(CCO)nn3)[C@@H]([Si](C)(C)c3ccc(OC)cc3)[C@@H]2C)c2cc(N3C(=O)c4cccc5cccc3c45)ccc21
→ . | . | . | -6.4 | 69.5*[16.7 µM] | 54.8
30) COc1ccc([Si](C)(C)[C@@H]2[C@@H](CCO)O[C@]3(C(=O)N(Cc4ccccc4)c4ccc(N5CCCCC5=O)cc43)[C@H]2C)cc1
→ -16.7 | . | . | 10.1 | 10.6[16.7 µM] | 67.1

Look-ups from the list:
Env fusion inh, compound 21 : 10.6
Cneo AK release, compound 24 : 4.4
PGC1a acetyl inh, compound 27 : -17.5
FN deposit inh, compound 23 : 12.5
Yeast UUG start, compound 30 : 10.1

The list continues.
Values run as follows: PGC1a acetyl inh | FN deposit inh | miR-122 sensor | Yeast UUG start | Env fusion inh | Cneo AK release
31) OC(CN1CCN(c2ccccc2)CC1)c1ccc2c(c1)CCN2 (stereo not given)
→ . | . | . | -3.3 | -5.7 | 2.4
32) N=c1ccn2c(n1)O[C@H]1[C@H](O)[C@@H](CO)O[C@H]12
→ . | 3.3 | . | -19.8 | 24.1 | -0.9
33) N=c1nc2n(cc1F)C1OC(CO)C(O)C1O2 (stereo not given)
→ -0.5 | 3.5 | -0.9 | . | 68.9* | .
34) CCOc1ccc(CN2C(=O)c3ccccc3C2C(=O)NC(C)CC)cc1OC (stereo not given)
→ 2.4 | 3.8 | -4.6 | -2.9 | -9.9 | -1.3
35) CCCC(O)(CCC)C(=O)NN(C(=O)CCl)c1ccccc1
→ . | -2.5 | . | . | 84.9* | .
36) CCCCC(O)(CCCC)C(=O)NN(C(=O)OC)c1ccccc1
→ . | -2.1 | 143.6* | -4.4 | . | 3.0
37) CCCCC(O)(CCCC)C(=O)NN(C(=O)OCC)c1ccccc1
→ . | -3.5 | . | . | -42.8 | .
38) CCC(=O)Nc1ccc2c(c1)C(=O)N(C)[C@H]1CC[C@H](CC(=O)Nc3ccc(C(C)C)cc3)O[C@@H]1CO2
→ 7.3 | 9.5 | -25.0[16.7 µM] | -12.6 | -4.5[16.7 µM] | -0.1
39) CNC(=O)C[C@H]1CC[C@H]2[C@H](COc3ccc(NC(=O)Nc4ccccc4)cc3C(=O)N2C)O1
→ -7.4 | 0.3 | 9.3[16.7 µM] | 10.7 | -3.1[16.7 µM] | 94.1*
40) CC(C)c1ccc(NC(=O)C[C@H]2CC[C@H]3[C@@H](COc4ccc(NC(=O)Nc5ccc(F)c(F)c5)cc4C(=O)N3C)O2)cc1
→ 19.7 | . | -45.0[16.7 µM] | . | 69.5*[16.7 µM] | -5.1
41) CNC(=O)C[C@H]1CC[C@H]2[C@H](COc3ccc(NC(=O)Nc4ccc(C)cc4)cc3C(=O)N2C)O1
→ -8.3 | -39.9 | -7.0[16.7 µM] | 9.2 | 11.7[16.7 µM] | 9.2

Whole records as entered above.
Entry for COc1ccc([Si](C)(C)[C@H]2[C@H](CCO)O[C@@]3(C(=O)N4c5c(cc(OC)cc53)C(C)=CC4(C)C)[C@@H]2C)cc1 = PGC1a acetyl inh: -11.1; FN deposit inh: .; miR-122 sensor: .; Yeast UUG start: -3.7; Env fusion inh: 34.1[16.7 µM]; Cneo AK release: -14.2
Entry for Cc1ccc(NS(=O)(=O)c2cc(C(=O)Nc3cccc([N+](=O)[O-])c3)ccc2C)cc1 = PGC1a acetyl inh: -9.1; FN deposit inh: -2.8; miR-122 sensor: 131.4*; Yeast UUG start: -10.9; Env fusion inh: .; Cneo AK release: 2.0
